Read-outs that look alike come from different tables or passages of the source.
Tested on: NSCLC patients (lung adenocarcinoma)
Format: in vivo, human

Substance: ^18F-FDG
- SUVmax (Patient 1, bone metastasis, right femur): 7.75
- SUVmax (Patient 1, primary LUAC, right lung): 9.45
- SUVmax (Patient 2, primary LUAC, large tumor on the right lung): 18.56

Source: PMC8761874 (European Journal of Nuclear Medicine and Molecular Imaging, 2022)
